Values of other authors, collected in patent publication US6479509B1, “Method of promoting smoking cessation” (priority 2000, dated 2002).

Amino acid sequences for entries named in this document (tags omitted).
UniProt P31652, whole entry: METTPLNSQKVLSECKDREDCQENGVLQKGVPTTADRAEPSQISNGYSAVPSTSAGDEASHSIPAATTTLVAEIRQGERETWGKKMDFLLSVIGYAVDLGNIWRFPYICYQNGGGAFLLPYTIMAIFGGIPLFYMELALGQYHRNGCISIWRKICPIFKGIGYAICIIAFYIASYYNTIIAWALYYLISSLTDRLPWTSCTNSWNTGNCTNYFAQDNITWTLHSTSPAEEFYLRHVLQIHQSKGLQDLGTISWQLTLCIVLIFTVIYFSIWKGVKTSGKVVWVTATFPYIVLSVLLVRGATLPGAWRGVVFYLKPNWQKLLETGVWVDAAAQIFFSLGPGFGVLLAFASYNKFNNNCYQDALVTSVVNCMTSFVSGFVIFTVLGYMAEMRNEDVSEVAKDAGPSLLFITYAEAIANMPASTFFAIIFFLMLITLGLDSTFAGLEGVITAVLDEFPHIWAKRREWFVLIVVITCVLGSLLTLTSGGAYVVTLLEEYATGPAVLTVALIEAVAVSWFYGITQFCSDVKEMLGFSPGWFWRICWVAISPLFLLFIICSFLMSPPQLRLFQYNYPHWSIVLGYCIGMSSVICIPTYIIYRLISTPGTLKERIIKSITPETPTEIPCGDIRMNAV

Target: T1, Serotonin transporter (Rattus norvegicus, UniProt P31652)
T1 construct: from tissue; host or cells: brain
Settings: brain; read-out: Serotonin [3H]Paroxetine IC50; cited from earlier work

With `COC(=O)[C@H]1[C@@H](c2ccccc2)C[C@@H]2CC[C@H]1N2C` [WIN 35,065-2, reference compound] as the compound, how does the IC50 read?
The IC50 was 1960 nM.
